{
  "sequences": {"note": "Amino acid sequences for entries named in this document (tags omitted).", "UniProt P41743, whole entry": "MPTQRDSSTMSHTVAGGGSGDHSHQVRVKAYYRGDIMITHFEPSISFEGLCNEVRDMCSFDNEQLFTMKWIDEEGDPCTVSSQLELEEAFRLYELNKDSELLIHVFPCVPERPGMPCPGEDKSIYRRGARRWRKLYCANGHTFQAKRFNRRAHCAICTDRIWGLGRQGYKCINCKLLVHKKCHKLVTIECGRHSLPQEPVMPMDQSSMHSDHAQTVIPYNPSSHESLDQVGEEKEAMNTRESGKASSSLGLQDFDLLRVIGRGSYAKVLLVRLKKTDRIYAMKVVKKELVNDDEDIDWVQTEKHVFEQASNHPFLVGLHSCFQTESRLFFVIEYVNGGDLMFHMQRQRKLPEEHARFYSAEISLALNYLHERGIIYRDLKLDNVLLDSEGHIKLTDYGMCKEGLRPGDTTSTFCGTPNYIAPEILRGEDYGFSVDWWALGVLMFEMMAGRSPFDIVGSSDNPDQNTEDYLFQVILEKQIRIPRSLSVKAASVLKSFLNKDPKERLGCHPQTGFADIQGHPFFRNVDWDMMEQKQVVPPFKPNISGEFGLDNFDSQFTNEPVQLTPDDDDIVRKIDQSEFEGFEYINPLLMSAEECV"},
  "source": "patent US10183950B2",
  "about": "“Thienopyrimidine inhibitors of atypical protein kinase C” (Cancer Research Technology Limited, priority 2011, dated 2019)",
  "molecular_target": "full-length human PKCι (Homo sapiens, UniProt P41743)",
  "experiment": "PKCι IC50 IMAP fluorescence polarisation assay, full-length enzyme",
  "conditions": "read-out: IC50 in IMAP assay against full length PKCi; full length PKCi at 15 μM ATP",
  "data": [
    {"compound": "N[C@H](CNc1nc(-c2ccncc2)nc2c(/C=C/C(=O)O)csc12)Cc1ccccc1", "values": [
      {"measurement": "IC50", "value": "100 to 1000", "unit": "nM"}
    ]}
  ]
}
